From BindingDB's records for doi:10.1111/j.1476-5381.1996.tb15208.x (Smithkline Beecham Pharmaceuticals, 1996)

Sequences of proteins named here, by UniProt entry; tags and fusion partners are left off. A change or cut given only in a name is not applied to a line headed by its entry.
UniProt P28335: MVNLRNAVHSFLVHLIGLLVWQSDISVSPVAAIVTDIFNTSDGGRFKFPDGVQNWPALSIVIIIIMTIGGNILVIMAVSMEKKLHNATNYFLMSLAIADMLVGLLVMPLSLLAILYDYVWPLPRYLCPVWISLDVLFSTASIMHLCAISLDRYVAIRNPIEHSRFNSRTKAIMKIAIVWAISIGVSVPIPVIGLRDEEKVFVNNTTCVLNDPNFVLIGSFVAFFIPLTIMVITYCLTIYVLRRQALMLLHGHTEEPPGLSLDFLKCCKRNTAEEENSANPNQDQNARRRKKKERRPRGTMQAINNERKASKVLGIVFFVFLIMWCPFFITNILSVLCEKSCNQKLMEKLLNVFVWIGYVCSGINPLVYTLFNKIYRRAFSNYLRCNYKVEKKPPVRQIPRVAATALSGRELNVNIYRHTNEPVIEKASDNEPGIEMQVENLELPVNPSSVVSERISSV

Molecular target: 5-hydroxytryptamine receptor 2C (Homo sapiens, UniProt P28335)

Cn1ccc2cc3c(cc21)CCN3C(=O)Nc1cccnc1
Ki: 0.012 µM
